Reference: patent US9012422B2, “Method of treating acute myelogenous leukemia” (Wake Forest University Health Sciences, priority 2011, dated 2015)

Sequences of proteins named here, by UniProt entry; tags and fusion partners are left off. Residues count along the entry.
UniProt P04818, 2-313 limits assumed: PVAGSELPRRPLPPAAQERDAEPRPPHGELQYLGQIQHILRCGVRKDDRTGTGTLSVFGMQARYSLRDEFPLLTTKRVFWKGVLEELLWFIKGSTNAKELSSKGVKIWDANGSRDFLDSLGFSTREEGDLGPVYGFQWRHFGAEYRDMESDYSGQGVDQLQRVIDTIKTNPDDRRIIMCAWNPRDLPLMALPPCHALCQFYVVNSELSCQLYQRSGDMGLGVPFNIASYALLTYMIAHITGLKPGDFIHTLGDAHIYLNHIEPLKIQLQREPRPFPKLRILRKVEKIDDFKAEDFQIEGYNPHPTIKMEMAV

Key:
[1] = system: murine AML cells expressing human MN1; assay: Cytotoxicity assay of murine AML cells expressing MN1; format: cell-based; conditions: 72 hours
Source text: (§1) FIG. 1. […] (B) Flow cytometry of Annexin V assay.
(§2) In addition to p53 loss, several other adverse prognostic factors are expressed in the cell lines tested. K562 cells express the fusion gene BCR-ABL that has been implicated in chemotherapy resistance^17 and prognosis in AML^18. THP-1 cells express high levels of MN1^18, shown to confer an adverse prognosis^20-21.

[2] = system: MR2 cell line (MLL-ENL and NRasG12D) leukemia in C57/Bl6 mice
Source text: FIG. 12. […] C57/Bl6 mice were sublethally irradiated to 4.5 Gy and injected with an MLL-ENL and NRAS syngeneic leukemia. […] P value was obtained by log rank test. […] P value was obtained by log rank test.
The Wake Forest University Institutional Animal Care and Use Committee approved all mouse experiments. Luciferase-tagged leukemia cells were transplanted into 6- to 8-wk-old sublethally irradiated recipient mice (4.5 Gy) by tail-vein injection of 1×10^6 viable cells. Mice were monitored by bioluminescent imaging on day 7. Imaging was performed using an IVIS100 imaging system (Caliper LifeSciences, Hopkinton, Mass.). Mice were injected with 150 mg/kg D-Luciferin (Gold Biotechnology, St. Louis, Mo.), anesthetized with isoflurane, and imaged for 2 min. Chemotherapy was initiated upon detection of clear signals. […] Control animals were injected with PBS. Repeat luciferase imaging was performed on day 6 of treatment.
Recent studies have shown that the bone marrow microenvironment can have a profound effect on chemotherapy response in AML^24. Additionally, the immune system can affect the degree of response to a given therapy in vivo^25. […] This cell line express MLL-ENL and the mutated oncogene, NRas^G12D in conjunction with a luciferase reporter. […] This cell line expresses the FLT3 receptor with an internal tandem duplication (FLT3 ITD) in place of NRas^G12D. […]

normal murine HSCs = conditions: mouse, in vivo
Procedure: (§3) FIG. 7. […] Mice were treated in the same manner as the in FIG. 6; sacrificed 72 hours after the last dose; and organs were harvested, fixed, paraffin-embedded, sectioned, and stained. Slides were imaged using a Nikon Eclipse 50i light microscope, magnification as indicated. Photographs of tissues were taken using the NIS Elements D3.10 camera and software system. (B) Bone marrow transplant. […] Ly5.1+C57/Bl6 recipient mice were irradiated to 8 gray and injected with donor cells. After three weeks recipients were harvested and degree of femur engraftment by donor cells was determined by staining with Ly5.2 antibody and analyzed by flow cytometry.
(§4) Normal C57/Bl6 mice were treated with identical dose, schedule and route of each drug as in the efficacy studies (i.e. Day 1, 3, 5 and 7). 72 hours after the last dose, animals were sacrificed, bilateral femoral cells harvested and organs fixed in 10% neutral buffered formalin followed by routine tissue processing and sectioning for hematoxylin and eosin staining. Slides were then reviewed by a veterinary pathologist using a Nikon Eclipse 50i light microscope. Photographs of tissues were taken using the NIS Elements D3.10 camera and software system. For transplant studies Ly5.1+C57/Bl6 recipient animals were irradiated to 8 gray and injected with 1×10^6 femur cells or, when 1×10^6 cells were not isolated, then 90% of all cells isolated by tail vein injection. Three weeks later recipient femoral bone marrow was harvested and stained with APC-conjugated anti-Ly5.2 antibody (BD Pharmingen, San Diego, Calif.) and analyzed by flow cytometry.
(§5) Previous studies have shown that the gastrointestinal (GI) toxicity caused by 5-FU is at least in part mediated by RNA-directed effects^27. […] Three days after the last treatment, animals were sacrificed, bilateral femur marrow cells collected and organs harvested, sectioned, and stained.

normal C57/Bl6 mice = conditions: mouse, in vivo
Procedure: as §3, §4, §5

NCI 60 cell line screen = conditions: cited from earlier work
[3] = system: human leukemia cell lines
Source text: We chose to use doxorubicin as the anthracycline as it is the best tolerated anthracycline in C57/Bl6 mice^11 and would allow for comparisons between in vivo and in vitro studies.

thymidylate synthase = target: T1, thymidylate synthase (Homo sapiens, UniProt P04818); assay: TS catalytic activity in treated HL60 cells; format: cell-based; conditions: 10 nM FdUMP[10]
T1 construct: endogenous in cells; host or cells: HL60
Procedure: FIG. 3. […] (A) TS inhibition assay. […] Activity is plotted as percentage of control.
Cells were exposed to the indicated drug for 8, 16, 24, or 48 hours. Cells were then harvested in 25 mM Tris-HCl, pH 7.4 with Complete Protease Inhibitor Cocktail (Roche), put through 2 freeze/thaw cycles, and vortexed. The lysates were centrifuged at 10,000×g for 10 minutes at 4° C. TS assays were performed in a final volume of 200 μl containing 75 μM 5,10 methylene tetrahydrofolate in 0.5 M NaOH (Schircks Laboratories, Switzerland), 10 μM dUMP, 200,000 dpm of ^3H-dUMP (Moravek Biochemicals), 100 μM 2-mercaptoethanol, and 25 mM KH2PO4, pH 7.4. Cell lysate (400 μg of protein) was added to the reaction buffer. Reactions were incubated at 37° C. for 30 minutes and stopped by addition of 100 μl of 20% TCA, incubated for 5 minutes on ice. 200 μL of activated charcoal solution (10 g activated charcoal, 0.25 g BSA, 0.25 g dextran sulfate, in 100 ml of water) was added, vortexed and maintained at room temperature for 10 minutes. Reactions were centrifuged at 10,000×g for 30 minutes. 200 μL aliquots of the supernatant were read by scintillation counting. All reactions were repeated a minimum of three times.

[4] = system: murine AML cells expressing p210 BCR-ABL; assay: Cytotoxicity assay of murine AML cells expressing p210 BCR-ABL; format: cell-based; conditions: 72 hours
Source text: as §1, §2

[5] = system: normal HSCs from healthy allogeneic donors

10-mer oligonucleotide of 5-fluorodeoxyuridine [FdUMP[10]]
fold change of IC50 vs parental leukemia cells, MN1 [1]: 2.07 fold
tolerability ([2]; 300 mg/kg every other day for four doses): well tolerated
signs of toxicity ([2]; 300 mg/kg on days 1 and 4): no signs of toxicity
engraftment of femur cells from treated donors in irradiated recipients (normal murine HSCs): engrafted to the same extent as the control animal
GI-tract histopathology (small and large intestine) (normal C57/Bl6 mice): only mild crypt epithelial apoptosis with mitoses
bone marrow histopathology (normal C57/Bl6 mice): only minimal to mild apoptosis
potency in the NCI 60 cell line screen relative to 5-FU (NCI 60 cell line screen): 338 fold
increased potency compared to 5-FU [3]: ~1,000 fold
TS inhibition (thymidylate synthase): profound and prolonged TS inhibition
fold change of IC50 vs parental leukemia cells, p210 BCR-ABL [4]: 1.98 fold
suppression of normal HSC colony formation [5]: only suppressed HSC colony formation at the highest dose tested
